{"source": "BindingDB's records for patent US11667637", "about": "(Theravance Biopharma R&D Ip, 2023)", "molecular_target": "T1, Tyrosine-protein kinase JAK3 (Homo sapiens, UniProt P52333)", "T1 sequence (P52333 whole entry)": "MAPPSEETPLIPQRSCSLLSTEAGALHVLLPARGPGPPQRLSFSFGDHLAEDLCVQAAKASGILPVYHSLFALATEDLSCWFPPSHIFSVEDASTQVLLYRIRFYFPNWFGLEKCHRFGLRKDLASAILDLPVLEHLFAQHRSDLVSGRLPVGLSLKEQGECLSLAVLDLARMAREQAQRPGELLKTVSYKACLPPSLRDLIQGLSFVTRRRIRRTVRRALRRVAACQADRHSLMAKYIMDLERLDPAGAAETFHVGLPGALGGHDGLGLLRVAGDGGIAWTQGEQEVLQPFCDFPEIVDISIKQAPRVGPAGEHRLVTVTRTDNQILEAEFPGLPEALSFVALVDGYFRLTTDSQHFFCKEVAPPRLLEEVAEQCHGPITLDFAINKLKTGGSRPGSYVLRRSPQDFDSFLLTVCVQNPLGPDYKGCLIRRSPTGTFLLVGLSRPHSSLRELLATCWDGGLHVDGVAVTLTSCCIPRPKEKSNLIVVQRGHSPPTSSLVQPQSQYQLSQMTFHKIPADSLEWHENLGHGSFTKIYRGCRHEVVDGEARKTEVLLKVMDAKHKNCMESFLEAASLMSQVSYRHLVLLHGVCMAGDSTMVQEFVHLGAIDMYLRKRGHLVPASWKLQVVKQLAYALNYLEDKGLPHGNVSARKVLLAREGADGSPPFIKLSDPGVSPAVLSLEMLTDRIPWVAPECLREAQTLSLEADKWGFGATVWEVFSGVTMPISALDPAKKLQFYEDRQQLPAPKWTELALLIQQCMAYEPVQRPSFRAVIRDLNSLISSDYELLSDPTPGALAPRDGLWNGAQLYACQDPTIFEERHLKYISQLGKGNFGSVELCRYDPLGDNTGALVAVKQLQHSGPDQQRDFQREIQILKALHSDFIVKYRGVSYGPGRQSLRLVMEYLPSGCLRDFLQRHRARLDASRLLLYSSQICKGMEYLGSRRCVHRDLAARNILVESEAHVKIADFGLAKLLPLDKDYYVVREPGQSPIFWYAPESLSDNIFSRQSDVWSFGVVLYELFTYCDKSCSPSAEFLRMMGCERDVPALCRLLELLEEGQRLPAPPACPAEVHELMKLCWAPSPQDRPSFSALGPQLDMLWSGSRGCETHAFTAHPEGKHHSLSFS", "assay": "A panel of four LanthaScreen JAK biochemical assays (JAK1, 2, 3 and Tyk2) were carried in a common kinase reaction buffer (50 mM HEPES, pH 7.5, 0.01% Brij-35, 10 mM MgCl2, and 1 mM EGTA). Recombinant GST-tagged JAK enzymes and a GFP-tagged STAT1 peptide substrate were obtained from Life Technologies. Serially diluted compounds were pre-incubated with each of the four JAK enzymes and the substrate in white 384-well microplates (Corning) at ambient temperature for 1 h. ATP was subsequently added to initiate the kinase reactions in 10 μL total volume, with 1% DMSO. […] Kinase reactions were allowed to proceed for 1 hour at ambient temperature before a 10 μL preparation of EDTA (10 mM final concentration) and Tb-anti-pSTAT1 (pTyr701) antibody (Life Technologies, 2 nM final concentration) in TR-FRET dilution buffer (Life Technologies) was added. The plates were allowed to incubate at ambient temperature for 1 h before being read on the EnVision reader (Perkin Elmer)."}
{"smiles": "CCCN1Cc2[nH]c(-c3n[nH]c4cc(-c5cc(F)c(O)cc5CC)ccc34)nc2C[C@H]1C(=O)N1CCN(CCO)C[C@H]1C", "note": "[US11667637, Example 7]", "values": [{"measurement": "Ki", "result": 0.16, "unit": "nM"}]}
